# Measured values published in US11999716B2, “WDR5 inhibitors and modulators” (priority 2018, dated 2024).
# How the values were obtained:
# WDR5 = WDR5 (Homo sapiens, UniProt P61964); conditions: read-out: Ki for Inhibition of WDR5 by TR-FRET assay; WDR5-His tag (Δ23, residues 24-334) 2 nM; 10mer-Thr-FAM probe 150 nM; Tb-anti-HIS 1 nM; 60 min, room temperature
# [1] = test system: MV4:11 human cancer cell lines; test: Cellular viability / anti-proliferative activity, CellTiter-Glo, 5 day protocol; format: cell-based; conditions: read-out: GI50 on cellular proliferation of MV4:11 human cancer cell lines, MV4:11 cells, 5 day incubation, mean of minimum two replicates
SMILES,Ki (WDR5) [nM],GI50 [1] [nM]
CCc1nccn1Cc1cc2c(c(-c3cn(CC)nc3C(F)(F)F)c1)CCN([C@@H](C)c1cc(OC)ccn1)C2=O,< 0.05,< 50
Cc1ccnc(CN2CCc3c(cc(Cn4ccnc4C)cc3-c3cn(C)nc3C(F)(F)F)C2=O)c1,< 0.05,67
